The values that follow come from PubChem BioAssay AID1276 (Columbia University Molecular Screening Center, 2008).

This is a selection; strong and weak results do not stand in their true shares. Active and inactive are the calls of the source.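 The calls were made as follows: active = activation above a set limit, based on mean plus 3 SD of controls (cut at about 140% in these data); inconclusive = one replicate above the limit, the other below; inactive = the rest.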

The assay in a line: activators of APP 5'UTR luciferase reporter, primary screen, SH-SY5Y cells (AID 1276). As to conditions: SH-SY5Y APP 5'UTR luciferase reporter, luminescence; at 2 µM; stronger effect = higher value; zero percent = DMSO vehicle wells.
For `CCOC(=O)c1ccc(NP(C)(=O)Oc2cc(C)cc(C)c2)cc1` (stereo not drawn), the activation was inactive: 2.06%.
With `Cc1cc(C)cc(OP(C)(=O)Nc2ccc(C)cc2C)c1` (stereo not drawn) the figure was inactive: 6.87%; with `Cc1ccc(C)c(NP(C)(=O)Oc2ccccc2)c1` (stereo not drawn), inactive: 1.74%.
Turning to `CP(=O)(Nc1cccc(Br)c1)Oc1ccccc1` (stereo not drawn), the activation was inactive: -21.7%.
With `Cc1cc(C)cc(OP(C)(=O)Nc2ccccn2)c1` (stereo not drawn) the figure was inactive: 0.04%.
In the case of `CC1=NCCc2c1[nH]c1ccccc21.O=[N+]([O-])c1cc([N+](=O)[O-])c(O)c([N+](=O)[O-])c1`, the activation was inactive: 5.97%.
Consider `CN1CCCCC1COC(=O)C1(O)c2ccccc2CCc2ccccc21` (stereo not drawn), for which the activation was inactive: -8.7%.
With `COc1ccccc1OP(C)(=O)Nc1c(C)cccc1C` (stereo not drawn) the figure was inactive: -13.5%; with `CP(=O)(Nc1ccc(SC(F)(F)F)cc1)Oc1ccccc1` (stereo not drawn), inactive: 19.6%; with `CCCOc1ccc(NP(C)(=O)Oc2ccc(Cl)cc2)cc1` (stereo not drawn), inactive: 25.1%.
Next, `O=[N+]([O-])c1cc([N+](=O)[O-])c(-n2nnc3ccccc32)c([N+](=O)[O-])c1`: inactive: -36%; `Cc1nc2ccc3ccccc3c2s1.O=[N+]([O-])c1cc([N+](=O)[O-])c(O)c([N+](=O)[O-])c1`: inactive: -1.88%; `Cc1cccc(C)c1OP(C)(=O)Nc1ccc(SC(F)(F)F)cc1` (stereo not drawn): inactive: 4.95%.
Next, `CP(=O)(Oc1ccccc1)OC(c1ccccc1)C(F)(F)F` (stereo not drawn): inactive: 13.5%; `CP(=O)(NC(=O)Nc1ccccc1)Oc1ccccc1` (stereo not drawn): inactive: 10.1%.
Consider `Cc1cc(C)cc(OP(C)(=O)Nc2ccc(SC(F)(F)F)cc2)c1` (stereo not drawn), for which the activation is inactive: 8.39%.
With `CCOC(=O)c1ccc(NP(C)(=O)Oc2ccc(OC)cc2)cc1` (stereo not drawn), the activation was inactive: -5.88%.
Next, `CCOP(C)(=S)SCC(=O)NC(C)C(=O)O` (stereo not drawn): inactive: -3.66%; `CP(=O)(Nc1ccccn1)Oc1ccc(Cl)cc1` (stereo not drawn): inactive: -9.58%; `CP(=S)(Nn1cnnc1)Oc1ccccc1` (stereo not drawn): inactive: 3.69%.
Next, `CP(=O)(Nc1ccccc1Br)Oc1ccccc1` (stereo not drawn): inactive: -2.19%.
Consider `COc1ccccc1OP(C)(=O)Nc1ccccc1` (stereo not drawn), for which the activation is inactive: -1.81%.
Turning to `O=[N+]([O-])c1ccc2c(c1)C=Nc1ccccc1O2`, the activation was inactive: 2.05%.
Next, `CC(C)(C)c1ccc(OP(C)(=O)Nc2ccc(SC(F)(F)F)cc2)cc1` (stereo not drawn): inactive: 5.58%; `Cc1cccc(C)c1OP(C)(N)=O` (stereo not drawn): inactive: 10.6%.
`COc1ccccc1OP(C)(=O)Nc1ccc(C)cc1` (stereo not drawn): the activation was inactive: 15.2%.
On to `Cc1ccc(NP(C)(=O)Oc2ccccc2)c(C)c1` (stereo not drawn), for which the activation is inactive: -12%.
Consider `CCOC(=O)c1ccc(NP(C)(=O)Oc2ccccc2)cc1` (stereo not drawn), for which the activation is inactive: 2.63%.
With `Cc1cc(C)cc(OP(C)(N)=O)c1` (stereo not drawn) the figure was inactive: -15.6%; with `COc1ccccc1OP(C)(=O)Nc1cc(Cl)ccc1C` (stereo not drawn), inactive: 9.54%; with `COc1ccc(OP(C)(=O)Nc2cccc(F)c2)cc1` (stereo not drawn), inactive: 7.41%.
Next, `CCN(CC)CCCOC(=O)C(O)(c1ccccc1)c1ccccc1`: inactive: 5.82%; `COc1ccc(OP(C)(=O)Nc2ccccn2)cc1` (stereo not drawn): inactive: -2.38%.
Next, `CN(C)CCOC(=O)C(O)(c1ccccc1)C1CCCC1` (stereo not drawn): inactive: -9.15%.
Take `Cc1c(NP(C)(=O)Oc2ccc(C(C)C)cc2)c(=O)n(-c2ccccc2)n1C` (stereo not drawn): the activation was inactive: 5.54%.
On to `CP(=O)(Nc1ccccn1)Oc1ccccc1` (stereo not drawn), for which the activation is inactive: -8.11%.
Next, `COc1ccccc1OP(C)(=O)Nc1ccc(C)cc1C` (stereo not drawn): inactive: 10.3%; `CCc1ccc(OP(C)(=O)O)cc1`: inactive: -7.13%; `Cc1cc(C)cc(OP(C)(=O)Nc2cccc(C(F)(F)F)c2)c1` (stereo not drawn): inactive: -15.2%.
As for `COc1ccccc1OP(C)(=O)Nc1ccc(C)c(C)c1` (stereo not drawn), the activation was inactive: 21.4%.
With `COc1ccc(OP(C)(=O)Nc2ccccc2Br)cc1` (stereo not drawn) the figure was inactive: 2.03%.
Next, `Cc1nc2ccc3ccccc3c2o1.O=[N+]([O-])c1cc([N+](=O)[O-])c(O)c([N+](=O)[O-])c1`: inactive: 6.65%; `CP(=O)(OCCOc1ccccc1)OCCOc1ccccc1`: inactive: -7.07%.
Next, `CP(=O)(Nc1ccc(Cl)cc1Cl)Oc1ccccc1` (stereo not drawn): inactive: 2.4%; `CCOC(=O)c1ccc(NP(C)(=O)Oc2ccc(Cl)cc2)cc1` (stereo not drawn): inactive: 3.78%.
For `CP(=O)(OC12CC3CC(CC(C3)C1)C2)OC12CC3CC(CC(C3)C1)C2`, the activation is inactive: -10.3%.
As to `CCN(CC)CC(O)COC(=O)C(O)(c1ccccc1)C1CCCCC1` (stereo not drawn), the activation is inactive: -1.84%.
In the case of `COc1ccc(OP(C)(=O)Nc2ccc(Br)cc2)cc1` (stereo not drawn), the activation was inactive: 10.9%.
On to `COc1ccccc1OP(C)(=O)Nc1c(C)n(C)n(-c2ccccc2)c1=O` (stereo not drawn), for which the activation is inactive: 4.15%.
With `CP(=O)(Oc1ccccc1)N1CCOC1=O` (stereo not drawn), the activation was inactive: 1.7%.
In the case of `CCc1ccc(OP(C)(=O)Nc2cccnc2)cc1` (stereo not drawn), the activation was inactive: 14.2%.
Turning to `CC(C)(C)c1ccc(OP(C)(=O)O)cc1`, the activation was inactive: -8.43%.
On to `COc1ccccc1OP(C)(=O)Nc1ccccc1Br` (stereo not drawn), for which the activation is inactive: 0.62%.
With `CP(=O)(Nc1ccc(Cl)cc1)Oc1ccc(F)cc1` (stereo not drawn) the figure was inactive: -1.93%.
On to `CN(C)C(=O)c1c([N+](=O)[O-])cc([N+](=O)[O-])cc1[N+](=O)[O-]`, for which the activation was inactive: -7.93%.
Next, `CP(=O)(Nc1ccc2c(c1)OCCO2)Oc1ccccc1` (stereo not drawn): inactive: -5.72%; `Cc1ccccc1NP(C)(=O)Nc1ccccc1C`: inactive: -7.81%; `COc1ccc(OP(C)(=O)Nc2cccc(Br)c2)cc1` (stereo not drawn): inactive: 1.72%.
Next, `CN(C)CCOC(=O)C(O)(c1ccccc1)C1CCCCC1` (stereo not drawn): inactive: 6.26%; `COc1ccc(NP(C)(=O)Oc2ccccc2OC)cc1` (stereo not drawn): inactive: -15.8%; `O=[N+]([O-])c1cc([N+](=O)[O-])c(NCC2CCS(=O)(=O)C2)c([N+](=O)[O-])c1` (stereo not drawn): inactive: -6.99%.
For `CCOC(=O)c1ccc(NP(C)(=O)Oc2ccc(F)cc2)cc1` (stereo not drawn), the activation is inactive: 18.9%.
With `COc1ccc(OP(C)(=O)Nc2ccc(SC(F)(F)F)cc2)cc1` (stereo not drawn) the figure was inactive: 13.5%.
Next, `CCN(CC)CCCOC(=O)C(O)(c1ccccc1)C1CCCCC1` (stereo not drawn): inactive: -8.83%.
Regarding `CP(=O)(Nc1ccccc1)Oc1ccc(F)cc1` (stereo not drawn), the activation was inactive: -7.04%.
With `CP(=O)(Nc1ccccc1F)Oc1ccccc1` (stereo not drawn) the figure was inactive: -3.17%; with `CC(C)c1ccc(OP(C)(=O)Nc2ccc(SC(F)(F)F)cc2)cc1` (stereo not drawn), inactive: 11%.
With `O=C(OCCN1CCN(CCOCc2ccccc2)CC1)C(O)(c1ccccc1)c1ccccc1` the figure was inactive: -6.29%.
